Assay results from ChEMBL document CHEMBL1799928, “New 2-thioether-substituted apomorphines as potent and selective dopamine D₂ receptor agonists” (Eur J Med Chem, 2011).
pEC50: −log10 of the molar value.

The chains behind the UniProt entries cited, without tags or fusion partners.
UniProt P61169, whole entry: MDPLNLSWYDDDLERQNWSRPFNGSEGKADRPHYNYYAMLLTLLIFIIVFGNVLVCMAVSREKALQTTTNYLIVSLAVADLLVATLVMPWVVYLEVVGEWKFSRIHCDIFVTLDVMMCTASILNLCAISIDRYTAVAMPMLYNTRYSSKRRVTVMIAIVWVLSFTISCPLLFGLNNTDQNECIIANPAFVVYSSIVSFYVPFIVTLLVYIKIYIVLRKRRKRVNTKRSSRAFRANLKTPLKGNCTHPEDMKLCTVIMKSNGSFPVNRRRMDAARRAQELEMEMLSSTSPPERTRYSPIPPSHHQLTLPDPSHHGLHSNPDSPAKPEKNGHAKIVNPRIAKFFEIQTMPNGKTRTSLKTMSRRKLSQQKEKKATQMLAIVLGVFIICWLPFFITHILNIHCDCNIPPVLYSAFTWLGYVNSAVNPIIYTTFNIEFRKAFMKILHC

Biological target: D(2) dopamine receptor (Rattus norvegicus, UniProt P61169)
Assay: Agonist activity at rat D2 dopamine receptor expressed in CHOK1 cells assessed as [35S]GTPgammaS binding after 90 mins by liquid scintillation counter
Assay type: functional, cell-based, CHO-K1

CN1CCc2cccc3c2[C@H]1Cc1ccc(O)c(O)c1-3 [APOMORPHINE]
pEC50: 7.52
